Values of other authors as cited in patent US20120088773A1, “Circadian rhythm modulation” (priority 2010, published 2012).

Settings: adults, several months; (50,000 IU)/day; Merck manual

Question: With vitamin D as the substance, how does the “dose that can produce toxicity” value read?
Answer: 1250 µg/day
